Measurements from ChEMBL document CHEMBL3865825, “Discovery of novel Tetrahydrobenzo[b]thiophene and pyrrole based scaffolds as potent and selective CB2 receptor ligands: The structural elements controlling binding affinity, selectivity and functionality” (Eur J Med Chem, 2016).

Amino acid sequences for entries named in this document (tags omitted).
UniProt P21554, whole entry: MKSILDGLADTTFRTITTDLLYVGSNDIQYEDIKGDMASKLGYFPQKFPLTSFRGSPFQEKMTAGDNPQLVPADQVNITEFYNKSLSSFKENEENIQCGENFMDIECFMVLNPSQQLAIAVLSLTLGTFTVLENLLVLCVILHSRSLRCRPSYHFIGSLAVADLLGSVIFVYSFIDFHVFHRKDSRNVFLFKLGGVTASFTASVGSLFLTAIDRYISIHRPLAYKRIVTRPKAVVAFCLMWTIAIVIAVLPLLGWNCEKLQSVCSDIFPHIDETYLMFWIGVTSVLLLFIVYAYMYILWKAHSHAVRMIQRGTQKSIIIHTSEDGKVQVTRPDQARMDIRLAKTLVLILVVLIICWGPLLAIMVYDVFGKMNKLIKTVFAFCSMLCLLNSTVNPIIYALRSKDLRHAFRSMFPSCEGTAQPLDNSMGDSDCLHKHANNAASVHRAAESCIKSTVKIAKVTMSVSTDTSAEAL

Target: Cannabinoid receptor 1 (Homo sapiens, UniProt P21554)
Assay: Displacement of [3H]-CP-55940 from human CB1 receptor expressed in HEK293 cell membranes after 90 mins by radioligand binding assay

For `Cc1ccc(Cn2nc(C(=O)N[C@@H]3C(C)(C)[C@@H]4CC[C@@]3(C)C4)cc2-c2ccc(Cl)c(C)c2)cc1`, which Ki is on record?
Its Ki is 117 nM.
